The values below come from patent EP0791603A2, “Pure somatostatin antagonist and methods of use thereof” (American Cyanamid Company, priority 1996, dated 1997).

Chains of the proteins cited; added tags and fusions are not shown. Lines headed by an entry give the natural chain unless they say otherwise; changes in a name come on top.
UniProt P30680: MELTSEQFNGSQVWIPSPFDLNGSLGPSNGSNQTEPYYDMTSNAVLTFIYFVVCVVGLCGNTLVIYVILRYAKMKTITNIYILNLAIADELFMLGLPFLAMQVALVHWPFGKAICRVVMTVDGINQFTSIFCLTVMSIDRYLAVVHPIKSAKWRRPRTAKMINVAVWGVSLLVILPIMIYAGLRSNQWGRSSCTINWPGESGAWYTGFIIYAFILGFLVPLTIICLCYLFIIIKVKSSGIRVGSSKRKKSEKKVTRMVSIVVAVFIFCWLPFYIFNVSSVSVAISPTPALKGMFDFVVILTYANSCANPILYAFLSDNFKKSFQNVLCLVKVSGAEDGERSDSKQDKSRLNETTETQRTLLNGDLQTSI

The assay deals with T1, rat somatostatin receptor subtype 2 (SSTR2) (Rattus norvegicus, UniProt P30680).
T1 construct: expressed in transfected cells; host or cells: Saccharomyces cerevisiae LY364
In words: Yeast assay, somatostatin agonist activity (growth zone of modified yeast cells on histidine-free agar). The class given is cell-based. The conditions noted are these: 10 µL of a 1 mg/mL solution of S-14 in sterile water applied to the surface of the plate. On the procedure:
In this evaluation, yeast cells which have been specifically modified to functionally express rat somatostatin receptor subtype 2 (SSTR2) on their cell surfaces are used. S. Cerevisiae LY364 cells are plated in a standard synthetic agar medium which lacks histidine. In the absence of a somatostatin receptor agonist, the auxotrophic (his3) cells are unable to grow. In the presence of somatostatin, or a somatostatin agonist, the expression of an enzyme (His3p: imidazole-glycerol phosphate dehydratase) which is essential for histidine biosynthesis is induced. The cells become competent to produce histidine, resulting in a zone of growing cells around the applied test compound. The zone is measured and the test compound is given an agonist rating on a scale of 1-5 wherein 1 is minimum agonist activity and 5 is maximum agonist activity.
SCD-ura-trp: • 1) To 500 mL water add: • 1.7 g YNB without amino acids and (NH4)2SO4 • 5.0 g (NH4)2SO4 • 0.7 g CSM-ura-trp • 2) To additional 500 mL water add: 20 g Dextrose • 3) Autoclave separately. Mix.
SCL-ura-trp: • 1) To 500 mL water add: • 1.7 g YNB without amino acids and (NH4)2SO4 • 5.0 g (NH4)2SO4 • 0.7 g CSM-ura-trp • 2) To additional 500 mL water add: 30 mL Lactic Acid • 3) Autoclave separately. Mix. […]
On day 3, add 5µL 1 mg/mL S-14 to each plate. […] Growth in response to somatostatin should be readily observable. […]

In the case of Somatostatin-14 [reference compound], the “zone of growth, diameter” value is 2.5-3 cm.
